The values below are quoted from earlier work in US20090305995A1, “AGONISTS AND ANTAGONISTS OF THE SOMATOSTATIN RECEPTOR” (Novartis AG, priority 2004, published 2009).

By UniProt entry, the sequences of proteins in these tests, tags left out.
UniProt P31391, whole entry: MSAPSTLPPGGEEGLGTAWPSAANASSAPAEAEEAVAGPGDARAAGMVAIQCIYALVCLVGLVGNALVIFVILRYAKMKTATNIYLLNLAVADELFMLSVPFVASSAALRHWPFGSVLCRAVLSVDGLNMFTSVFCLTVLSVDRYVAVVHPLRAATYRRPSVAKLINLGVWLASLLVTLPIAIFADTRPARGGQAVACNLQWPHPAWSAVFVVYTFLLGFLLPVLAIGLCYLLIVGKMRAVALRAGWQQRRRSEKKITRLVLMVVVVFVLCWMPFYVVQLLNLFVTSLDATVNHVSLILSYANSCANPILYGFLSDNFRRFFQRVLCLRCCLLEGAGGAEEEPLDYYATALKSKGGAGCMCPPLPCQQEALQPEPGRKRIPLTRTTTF

One data set has as its target sst4 receptor (Homo sapiens, UniProt P31391). To be noted: literature value; cited from earlier work.
In data set [1] the test system is secretion of growth hormone, insulin or glucagon. To be noted: literature (Rohrer et al. 1998); cited from earlier work.

For `COC(=O)[C@H](CCCNC(=N)N)NC(=O)CCCc1c(-c2ccccc2)[nH]c2c(F)cc(F)cc12`, the Kd at sst4 receptor is 0.7 nM. The “inhibition of secretion of growth hormone, insulin or glucagon” value in data set [1] is on record as “did not inhibit”.

As a reminder, the Kd is a measure of binding affinity in units of concentration.
